From PMC7611940, “A Conformation Selective Mode of Inhibiting SRC Improves Drug Efficacy and Tolerability” (Cancer Research, 2021)

How the values were obtained:
Assay in all cases: biochemical
Conditions in all cases: read-out: % remaining activity
[1] = target: VRK2 (Homo sapiens, UniProt Q86Y07)
[2] = target: PAK6 (Homo sapiens, UniProt Q9NQU5)
[3] = target: T1, PKG1b (Homo sapiens, UniProt Q13976)
T1 construct: gene PRKG1

[4] = target: BMX (Homo sapiens, UniProt P51813)
[5] = target: WNK2 (Homo sapiens, UniProt Q9Y3S1)
[6] = target: CAMKK2 (Homo sapiens, UniProt Q96RR4)
[7] = target: PAK4 (Homo sapiens, UniProt O96013)
[8] = target: T2, MEKK3 (Homo sapiens, UniProt Q99759)
T2 construct: gene MAP3K3

[9] = target: PRKD3 (Homo sapiens, UniProt O94806)
[10] = target: GRK6 (Homo sapiens, UniProt P43250)
[11] = target: T3, PKAcb (Homo sapiens, UniProt P22694)
T3 construct: gene PRKACB

[12] = target: MARK4 (Homo sapiens, UniProt Q96L34)
[13] = target: FGFR3 (Homo sapiens, UniProt P22607)
[14] = target: HIPK1 (Homo sapiens, UniProt Q86Z02)
[15] = target: TBK1 (Homo sapiens, UniProt Q9UHD2)
[16] = target: TGFBR1 (Homo sapiens, UniProt P36897)
[17] = target: T4, MST1 (Homo sapiens, UniProt Q13043)
T4 construct: gene STK4

[18] = target: TGFBR2 (Homo sapiens, UniProt P37173)
[19] = target: VRK1 (Homo sapiens, UniProt Q99986)
[20] = target: T5, TRKA (Homo sapiens, UniProt P04629)
T5 construct: gene NTRK1

[21] = target: ULK3 (Homo sapiens, UniProt Q6PHR2)
[22] = target: TYK2 (Homo sapiens, UniProt P29597)
[23] = target: WNK3 (Homo sapiens, UniProt Q9BYP7)
[24] = target: T6, YES (Homo sapiens, UniProt P07947)
T6 construct: gene YES1

[25] = target: T7, ERK7 (Homo sapiens, UniProt Q8TD08)
T7 construct: gene MAPK15

[26] = target: LYN B (Homo sapiens, UniProt P07948)
[27] = target: HER2/ERBB2 (Homo sapiens, UniProt P04626)
[28] = target: Kit (Homo sapiens, UniProt P10721)
[29] = target: T8, MEK1 (Homo sapiens, UniProt Q02750)
T8 construct: gene MAP2K1

[30] = target: T9, TAK1 (Homo sapiens, UniProt O43318)
T9 construct: gene MAP3K7

[31] = target: EPHA6 (Homo sapiens, UniProt Q9UF33)
[32] = target: T10, CHK1 (Homo sapiens, UniProt O14757)
T10 construct: gene CHEK1

[33] = target: CSK (Homo sapiens, UniProt P41240)
[34] = target: T11, JNK1 (Homo sapiens, UniProt P45983)
T11 construct: gene MAPK8

[35] = target: BLK (Homo sapiens, UniProt P51451)
[36] = target: CAMK2d (Homo sapiens, UniProt Q13557)

## COc1cc(-c2nn(CCN3CCC(N(C)C)CC3)c3ncnc(N)c23)ccc1NC(=O)OC(C)(C)C [eCF506]
[1]
  remaining activity at 1 µM: 93.6%
[2]
  remaining activity at 1 µM: 102%
[3]
  remaining activity at 1 µM: 94.6%
[4]
  remaining activity at 1 µM: 2.8%
[5]
  remaining activity at 1 µM: 105%
[6]
  remaining activity at 1 µM: 117%
[7]
  remaining activity at 1 µM: 107%
[8]
  remaining activity at 1 µM: 80.2%
[9]
  remaining activity at 1 µM: 105%
[10]
  remaining activity at 1 µM: 102%
[11]
  remaining activity at 1 µM: 74.3%
[12]
  remaining activity at 1 µM: 98.6%
[13]
  remaining activity at 1 µM: 84.7%
[14]
  remaining activity at 1 µM: 100%
[15]
  remaining activity at 1 µM: 99.1%
[16]
  remaining activity at 1 µM: 110%
[17]
  remaining activity at 1 µM: 105%
[18]
  remaining activity at 1 µM: 104%
[19]
  remaining activity at 1 µM: 104%
[20]
  remaining activity at 1 µM: 100%
[21]
  remaining activity at 1 µM: 97%
[22]
  remaining activity at 1 µM: 89.6%
[23]
  remaining activity at 1 µM: 90.3%
[24]
  remaining activity at 1 µM: 1.8%
[25]
  remaining activity at 1 µM: 89.4%
[26]
  remaining activity at 1 µM: 2%
[27]
  remaining activity at 1 µM: 126%
[28]
  remaining activity at 1 µM: 75.1%
[29]
  remaining activity at 1 µM: 91.1%
[30]
  remaining activity at 1 µM: 102%
[31]
  remaining activity at 1 µM: 100%
[32]
  remaining activity at 1 µM: 99.7%
[33]
  remaining activity at 1 µM: 5%
[34]
  remaining activity at 1 µM: 106%
[35]
  remaining activity at 1 µM: 4.8%
[36]
  remaining activity at 1 µM: 102%
